Laboratory results reported in ChEMBL document CHEMBL1131639, “Structural analysis of thrombin complexed with potent inhibitors incorporating a phenyl group as a peptide mimetic and aminopyridines as guanidine substitutes” (J Med Chem, 1998).
pIC50: −log10 of the molar value.

Target: Prothrombin (Homo sapiens, UniProt P00734)

pIC50: 6.52
SMILES: CC1CCN(C(=O)[C@H](CCCNC(=N)N)NS(=O)(=O)c2cccc3c(N(C)C)cccc23)CC1
